Measurements from the NIST ThermoML archive (doi:10.1016/j.jct.2008.12.003).

Conditions: 101.33 kPa, Liquid, Pycnometric method

`OCCOCCOCCOCCO` [tetraethylene glycol] showed a mass density (303.15 K) of 1116 ± 1 kg/m3, a mass density (313.15 K) of 1108 ± 1 kg/m3 and a mass density (323.15 K) of 1100 ± 1 kg/m3. For the same compound, the mass density (333.15 K) was 1093 ± 1 kg/m3 and the mass density (343.15 K) was 1086 ± 1 kg/m3.

± gives the expanded uncertainty stated by the source.
